The target in this test is T1, human natriuretic peptide receptor 2 (hNPR2) (Homo sapiens, UniProt P20594).
T1 construct: expressed in transfected cells; host or cells: HEK293 (ATCC CRL-1573), clone 35, co-transfected with pGloSensor-42F
T1 sequence (P20594 23-1047): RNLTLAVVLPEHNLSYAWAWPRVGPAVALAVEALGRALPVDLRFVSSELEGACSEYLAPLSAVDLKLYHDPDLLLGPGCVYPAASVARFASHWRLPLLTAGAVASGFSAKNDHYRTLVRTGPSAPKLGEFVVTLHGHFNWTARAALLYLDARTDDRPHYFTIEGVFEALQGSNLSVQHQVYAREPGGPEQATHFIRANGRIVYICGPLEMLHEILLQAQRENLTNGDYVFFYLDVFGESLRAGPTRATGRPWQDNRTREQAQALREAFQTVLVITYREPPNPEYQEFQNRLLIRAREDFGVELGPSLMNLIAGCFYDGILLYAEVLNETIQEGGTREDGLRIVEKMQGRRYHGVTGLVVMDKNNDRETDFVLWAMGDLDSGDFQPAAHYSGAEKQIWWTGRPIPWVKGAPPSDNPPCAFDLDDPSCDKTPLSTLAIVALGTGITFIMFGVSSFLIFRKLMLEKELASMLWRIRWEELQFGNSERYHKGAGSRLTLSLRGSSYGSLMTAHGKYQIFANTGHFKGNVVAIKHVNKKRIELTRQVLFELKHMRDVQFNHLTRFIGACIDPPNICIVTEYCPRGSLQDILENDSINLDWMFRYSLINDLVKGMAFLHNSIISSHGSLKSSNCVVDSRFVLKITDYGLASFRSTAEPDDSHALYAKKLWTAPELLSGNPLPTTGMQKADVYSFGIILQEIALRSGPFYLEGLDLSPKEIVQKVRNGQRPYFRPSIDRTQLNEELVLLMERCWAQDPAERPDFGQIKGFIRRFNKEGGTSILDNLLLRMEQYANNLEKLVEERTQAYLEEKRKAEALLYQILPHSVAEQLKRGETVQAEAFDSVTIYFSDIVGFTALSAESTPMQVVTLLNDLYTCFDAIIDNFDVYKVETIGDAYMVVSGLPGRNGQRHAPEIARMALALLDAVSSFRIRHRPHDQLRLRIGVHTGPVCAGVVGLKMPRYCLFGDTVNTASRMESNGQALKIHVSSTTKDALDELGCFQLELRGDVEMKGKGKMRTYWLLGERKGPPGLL
The experiment in a line: In vitro hNPR2 activity assay (cGMP GloSensor reporter, HEK293). It counts as cell-based. To be noted: potency relative to CNP22 (0065). The protocol:
To evaluate the in vitro activity of CNP22 (0065; Chem. 1) and CNP compounds of the invention, they were tested for their ability to induce production of cyclic guanosine monophosphate (cGMP) in reporter cells expressing the human natriuretic peptide receptor 2 (hNPR2).
Cell culture: To produce the reporter cell line, HEK293 (ATCC® CRL-1573™) cells were stably transfected with the pGloSensor-42F reporter plasmid (GloSensor cGMP reporter—luciferase, Promega) and an expression plasmid encoding the hNPR2 receptor. A single cell clone was isolated for the reporter cell line. When reporter cells are exposed to an hNPR2 activating compound, hNPR2 cause production of cGMP. […] Active GloSensor luciferase is able to convert luciferin to oxyluciferin, a process that produces bioluminescence. Upon cell lysis and supply of luciferase substrate, luciferase activity can be quantified by detection of luminescence. Therefore, addition of an hNPR2 activating compound and subsequent addition of detection reagent to reporter cells causes generation of luminescence in a dose dependent manner. […] This measure, also referred to as in vitro potency, is reported for all compounds tested. In all the in vitro activity experiments, CNP22 was used as a positive in-plate control for hNPR2 activation. To reduce inter-assay variation, we also report the potency of each compound relative to the potency of the CNP22 control on each plate.
Procedure: HEK293-hNPR2/GloSensor clone 35 cells were continuously cultured in selection medium (DMEM containing 10% FCS, 1% P/S, 200 μg/mL G418 and 100 μg/mL hygromycin). To perform the assay, cells were detached with TrypLE Express (Gibco #12604013), put through a 70 μm cell strainer, counted and seeded in 30 μL/well assay medium (DMEM without phenol red and with 1% P/S) at 10,000 cells/well in white 384-well plates (Perkin Elmer #6007680) overnight. The following day, test compounds were serial diluted in dilution medium (DMEM without phenol red containing 1% OVA (Sigma #A5505 lot 04M7001V), 0.01% Tween20 (Roche #33766700) and 1% P/S) and 10 μL/well of diluted test compounds were subsequently added to the cells. For each compound, ten different concentrations in the range 0.25 μM-10 μM were tested. After 30 min of incubation at 37° C. and 5% CO2, 40 μL/well Bright-Glo detection reagent (Promega #E2650) was added. […] To determine the in vitro potency or EC50 of each test compound, a four parameter logistic regression was done on the raw data for each test compound using the Python package SciPy optimize. The average EC50 values are listed as “hNPR2 0% HSA. [EC50 (nM)]” in Table 2. A relative potency was calculated by the following expression: EC50 (CNP22 in-plate control)/EC50 (test compound)*100, shown as “hNPR2 0% HSA. [EC50% rel CNP]” in Table 2. A minimum of two replicates was measured for each test compound.

`CCCC[C@@H]1NC(=O)[C@H](CO)NC(=O)CNC(=O)[C@H]([C@@H](C)CC)NC(=O)[C@H](CCCNC(=N)N)NC(=O)[C@H](CC(=O)O)NC(=O)[C@H](CC(C)C)NC(=O)[C@H](CCCCN)NC(=O)[C@H](CC(C)C)NC(=O)CNC(=O)[C@H](Cc2ccccc2)NC(=O)[C@@H](NC(=O)CNC(=O)[C@H](CCCCN)NC(=O)[C@H](CO)NC(=O)[C@H](CC(C)C)NC(=O)CNC(=O)[C@H](CCCCN)NC(=O)[C@H](CCCCN)NC(=O)[C@H](CCC(N)=O)NC(=O)[C@H](C)NC(=O)CNC(=O)[C@H](CCCCN)NC(=O)[C@H](Cc2ccc(O)cc2)NC(=O)[C@H](CCCCN)NC(=O)[C@H](CCCNC(=N)N)NC(=O)[C@H](C)NC(=O)[C@H](CCC(N)=O)NC(=O)COCCOCCNC(=O)COCCOCCNC(=O)CC[C@H](NC(=O)CCCCCCCCCCCCCCCCC(=O)O)C(=O)O)CSSC[C@@H](C(=O)O)NC(=O)CNC(=O)[C@H](CC(C)C)NC(=O)CNC(=O)[C@H](CO)NC1=O` [compound 0312]: the “hNPR2 0% HSA. [EC50% rel CNP]” value was found to be 80.0%.

For the origin of these results see patent publication US20240209028A1, “CNP COMPOUNDS” (priority 2022, published 2024).
